# Screening results as filed in PubChem BioAssay.
# miR-21 reporter: miR-21 reporter, rising signal | HeLa miR-21 FLuc reporter, luciferase, 48 h | Potency, µM (top dose mostly 38.3 µM) | 340,000 tested, under 10 active | AID 2288; active = well fitted rising curve with a large enough effect; inconclusive = small, poorly fitted or top-dose-only effect; inactive = no such curve, though single readings can be large or run the other way;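 further: miR-21 action dims this reporter so a rising signal means less miR-21 action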
#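 Using DMEM plus 10% FBS, HeLa miR-21-FLuc cells are incubated with test compounds (final up to about 40uM) for 48 hours; firefly luciferase signal is then imaged following reagent-mediated lysis.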
# DT40 TDP1 no CPT: qHTS for Inhibitors of human tyrosyl-DNA phosphodiesterase 1 (TDP1): qHTS in cells in absence of CPT; DT40 Tdp1-/- hTDP1 cells, no CPT, ATP luminescence, 48 h; Potency, µM (doses to about 46.2 µM), actives largely listed as inhibitors; 15% of 420,000 active; AID 686978, 2013; further: nearly all actives have a fitted effect of over 55% in size
#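 No-CPT arm: Tdp1-/-;hTDP1 DT40 cells (400/well) plus compounds, incubated ≥48 hr at 37 °C. Readout CellTiter-Glo luminescence.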
# DT40 TDP1 CPT: growth inhibition of DT40 Tdp1-/-;hTDP1 cells with camptothecin (screen for TDP1 inhibitors); AID 686979; chicken DT40 Tdp1-/-;hTDP1 cells + 20 nM CPT, ATP luminescence, 48 h; Potency, µM (top dose mostly 46.2 µM), usual class: inhibitors; 12% of 420,000 active; further: nearly all actives have a fitted effect of over 55% in size
#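 Cell growth measured by CellTiter-Glo luminescence after a minimum 48 h, 37 C compound exposure with 20 nM CPT in Tdp1-knockout DT40 cells stably expressing hTDP1, seeded 400/well; qHTS titration format.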
# TDP1 inh: TDP1 (human) enzyme inhibition; Q9NUW8; recombinant TDP1, AlphaScreen DNA substrate cleavage; Potency, µM (top dose mostly 130 µM), hits mostly inhibitors; 0.28% of 350,000 active; further: nearly all actives have a fitted effect of over 40% in size
#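 Signal: AlphaScreen proximity between streptavidin donor and anti-FITC acceptor beads on intact substrate. Reaction: Tdp1 1 nM, substrate 15 nM final, 5 min RT after 15 min compound preincubation.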
# uPA surface inh: blocks generation of uPA at the cell surface | cell surface uPA generation assay, qHTS | Potency, µM (series often up to 38.3 µM), most hits filed as inhibitors | 0.31% of 330,000 active | AID 540303; active means well fitted inhibition curve with a large enough effect; inconclusive means small, poorly fitted or top-dose-only effect; inactive means no such curve, though single readings can be large or run the other way; tested in mouse RAW 264.7 cells; further: nearly all actives have a fitted effect of over 55% in size
# Hits are given with their value; i = inactive; ? = inconclusive; nt = no result; [ ] = dose if it differs, or a comment. Rows were chosen to be rich in hits. Some 16% of all compounds tested hit in one or more screens of this group. Unless noted, the call rests on the fitted dose curve; in most records, active means well fitted curve in the direction sought with a large enough effect; inconclusive means small, poorly fitted or top-dose-only effect, or another doubt; inactive means no such curve, though single readings can be large; an effect the other way counts as inactive or inconclusive.
SMILES,miR-21 reporter,DT40 TDP1 no CPT,DT40 TDP1 CPT,TDP1 inh,uPA surface inh
COc1ccc(S(=O)(=O)N2CCN(CCCOc3ccc(F)cc3)CC2)cc1OC,i,20.6µM,?,i,i
CCCS(=O)(=O)N1CCN(Cc2ccc(OCc3ccccc3)c(OC)c2)CC1,nt,?,?,nt,i
COc1ccc(S(=O)(=O)N2CCN(c3ccc(F)cc3)CC2)cc1OC,i,i,i,i,i
C#Cc1ccc(CN2CCN(CCc3ccccc3)C(CCO)C2)cc1 (configuration not stated),i,i,i,nt,i
COC(=O)C1=C[C@@H](C(=O)OC)C2C3=C(C(=O)[C@]2(CC(C)C)NC(=O)c2ccccc2)[C@H](C)n2c(=O)n(-c4ccccc4)c(=O)n2[C@@H]3C1 (some centres not stated),nt,nt,nt,i,nt
O=C(COC(=O)C12CC3CC(CC(O)(C3)C1)C2)N1CCN(S(=O)(=O)c2ccc(Cl)cc2)CC1,i,i,?,i,i
CC(C)CN(C(=O)CN1CCN(c2ccccc2F)CC1)c1c(N)n(CC(C)C)c(=O)[nH]c1=O,i,i,?,i,i
Cc1ccc(OCC(=O)N2CCN(C(=O)Cc3ccccc3)CC2)cc1,i,i,i,i,i
O=C(COc1ccc(-c2ccccc2)cc1)N1CCN(S(=O)(=O)Cc2ccccc2)CC1,i,14.6µM,23.1µM,i,i
CCOc1cc(CN2CCN(S(=O)(=O)c3ccc(C)cc3)CC2)ccc1OC,i,16.4µM,?,nt,nt
O=C(CN1CCCC1)NC(c1ccccc1)c1ccccc1,i,16.4µM,20.6µM,nt,i
O=C(CN1C(=O)NC2(CCCC2)C1=O)NC(c1ccccc1)c1ccccc1,nt,16.4µM,?,i,i
O=C(Cn1nc([N+](=O)[O-])nc1Br)NC(c1ccccc1)c1ccccc1,i,16.4µM,20.6µM,i,i
O=C(NCc1ccccn1)c1cnn(-c2nccc(-c3ccccc3F)n2)c1C1CC1,nt,i,i[9.04 µM],nt,nt
COC(=O)[C@@]1(Cc2ccccc2)[C@H]2c3cc(C(=O)N(C)C)n(Cc4ccsc4Br)c3C[C@H]2CN1C(=O)c1ccccc1,nt,nt,nt,i,nt
Oc1ccc2c(c1)OCC1(O)Cc3cc(O)c(O)cc3C21 (configuration not stated),nt,6.51µM,6.51µM,i,?
CCN(CC)c1ccc(CNCc2cccs2)cc1,i,20.6µM,16.4µM,i,i
CCNC(=O)C1(C)CCN1CCC(=O)c1ccc(C)cc1 (configuration not stated),nt,16.4µM,20.6µM,nt,nt
CN1CC[C@H](CN2c3ccccc3Sc3ccccc32)C1,nt,12.6µM,?,i,nt
CN1CCC(CN2c3ccccc3Sc3ccccc32)C1 (configuration not stated),nt,11.9µM,18.8µM,nt,nt
CN(C)CCCN1c2ccccc2Sc2ccc3ccccc3c21,nt,?,?,nt,i
O=C(CCN1CCCCC1)c1cccc(Cl)c1,nt,?,20.6µM,nt,i
O=C(NCCCN1CCN(CCCNC(=O)c2cccc(Cl)c2)CC1)c1cccc(Cl)c1,i,?,18.4µM,i,i
O=C(CNC(=O)c1cccc(Cl)c1)NCCCSc1ccccc1,nt,23.1µM,?,i[0.505 µM],i
Cc1cc(C)cc(N(CC(=O)NCc2ccccc2)C(=O)CCC(=O)Nc2ccccn2)c1,i,?,i,i,i
SMILES,miR-21 reporter,DT40 TDP1 no CPT,DT40 TDP1 CPT,TDP1 inh,uPA surface inh
COC(=O)CNC(=O)CSc1nnc2cc(C)c3ccccc3n12,i,i,i,i,i
CC(=O)N=c1scc(-c2ccccc2)n1-c1cccc(O)c1,?,16.4µM,?,i,i
Cc1cccc(C)c1-n1nnnc1C1(C)CCC(=O)N1Cc1cccc(C(F)(F)F)c1 (configuration not stated),nt,23.1µM,23.1µM,nt,nt
CC1(c2nnnn2Cc2ccccc2)CCC(=O)N1Cc1cccc(C(F)(F)F)c1 (configuration not stated),nt,i,i,nt,nt
O=c1[nH]nc(SCc2ccccc2)c(=O)[nH]1,i,i,i,i,i
NNC(=O)c1ccc(CSc2n[nH]c(=O)[nH]c2=O)cc1,i,i,i,44.7µM,i
CCCn1c(=O)c2c(c3ccccc31)OCC(=O)N2,i,i,i,i,i
Cc1c(C#N)c(N=CN(C)C)c(C(=O)c2ccc(Br)cc2)n1-c1ccc(Cl)cc1,i,?,11.2µM,i,nt
Cc1cc(NCCCOC(C)C)n2c(nc3ccccc32)c1C#N,i,25.9µM,?,nt,i
Cc1ccc(Nc2cc(C)c(C#N)c3nc4ccccc4n23)c(C)c1,i,13µM,14.6µM,i,nt
Cc1cc(N2CC(C)OC(C)C2)n2cc(-c3ccccc3)nc2n1 (configuration not stated),i,?,i,i,i
COc1cc(OC)c2c(-c3ccccc3)cc(=O)oc2c1C(CCN1CCCCC1)c1ccc(N(C)C)cc1 (configuration not stated),?,14.6µM,10.3µM,i,10µM
COc1cc(OC)c2c(c1C(CCN1CCOCC1)c1ccc(N(C)C)cc1)OC(=O)CC2c1ccc(N(C)C)cc1 (configuration not stated),i,?,16.4µM,i,?
COc1cc(OC)c2c(-c3ccccc3)cc(=O)oc2c1C(CCN1CCOCC1)c1ccc(N(C)C)cc1 (configuration not stated),nt,6.51µM,5.8µM,i,?
COc1ccc(C2CC(=O)Oc3c(C(CCN4CCN(c5ccccc5)CC4)c4ccc(N(C)C)cc4)c(OC)cc(OC)c32)cc1 (configuration not stated),i,?,i,i,i
CCN(CC)C(=O)COc1ccc2c(-c3ccccc3)cc(=O)oc2c1,i,i,i,i,i
CCN(CC)C(=O)CC(c1ccc(OC)cc1)c1c(OC)cc(OC)c2c(-c3ccccc3)cc(=O)oc12 (configuration not stated),nt,nt,nt,17.8µM,nt
COc1cc(C(CCN2CCCCC2)c2c(OC)cc(OC)c3c2OC(=O)CC3c2ccc(N(C)C)cc2)cc(OC)c1OC (configuration not stated),nt,nt,nt,i,nt
COc1cc(C(CC(=O)N2CCOCC2)c2c(OC)cc(OC)c3c(-c4ccccc4)cc(=O)oc23)cc(OC)c1OC (configuration not stated),nt,nt,nt,i,nt
O=C(NCc1ccc(Cl)cc1)c1cc([N+](=O)[O-])ccc1Cl,i,i,i,i,?
O=C(NCC(=O)N(c1cccc(F)c1)C(C(=O)NC1CCCC1)c1cccnc1)c1cccs1 (configuration not stated),i,i,i,i,i
COc1cc(C(CCN2CCOCC2)c2c(OC)cc(OC)c3ccc(=O)oc23)cc(OC)c1OC (configuration not stated),nt,nt,nt,i,nt
COc1ccc(C(CCN2CCCCC2)c2c(OC)cc(OC)c3c(-c4ccccc4)cc(=O)oc23)cc1 (configuration not stated),?,?,20.6µM,i,?
